According to patent US20230357349A1, “GLUCAGON DELIVERY VIA ENZYMATIC ACTUATION” (University of Notre Dame du Lac, priority 2022, published 2023):

Details: buffer, pH 5

Substance: dasiglucagon
- duration payload remains stable (no degradation or amyloid formation): at least 7 days
